For this assay, the species on record is Rattus norvegicus. Put plainly: Inhibition of rat PFTase.

Each structure is given as a SMILES string.

Turning to `C[C@@]12CCC[C@]3(C)c4cc5c(cc4C(=O)[C@](O)(OC1)[C@H]23)C(=O)C=CC5=O` [ALISIAQUINONE A], the Ratio IC50 was 2.8.

Source of the values: ChEMBL document CHEMBL1157424, “Alisiaquinones and alisiaquinol, dual inhibitors of Plasmodium falciparum enzyme targets from a New Caledonian deep water sponge” (J Nat Prod, 2008).
